# Antibody variant affinities, Ab-14 heavy chain, assay B

Antigen: PDVDLGDISGINAS, a 14-residue peptide of the SARS-CoV-2 spike HR2 region.

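The variants were designed computationally from a first round of random CDR variants and then made and measured. Group labels follow the data file (Ctrl: baseline library sampled from a position-specific scoring matrix, with some repeated check sequences; Rand: our label for a block that the file lists under HC and that is probably the random mutants of the ten best first-round binders; En: ensemble of fine-tuned language models; GP: Gaussian process model; GPLM: also part of the Gaussian process libraries; HC: hill climbing; Gen: genetic algorithm; Gibbs: Gibbs sampling; a sequence that several methods proposed may carry one label only). The assay is AlphaSeq: two haploid yeast populations carry antibody and antigen on their surface. Mating (16 h, 30 °C) was followed by selection of diploids and sequencing of their barcodes. Read counts were normalised to the haploid input and turned into Kd by a linear fit to BCL2-family pairs of known affinity, for each replicate. Each pool was mated in six replicate cultures.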

Parent scFv Ab-14: VH joined to VL by three GGGGS repeats. Changes lie in the heavy chain CDRs alone.
VH: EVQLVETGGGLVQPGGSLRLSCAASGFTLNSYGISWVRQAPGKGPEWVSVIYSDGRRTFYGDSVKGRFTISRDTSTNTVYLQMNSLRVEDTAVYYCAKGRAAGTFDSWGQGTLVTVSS
VL: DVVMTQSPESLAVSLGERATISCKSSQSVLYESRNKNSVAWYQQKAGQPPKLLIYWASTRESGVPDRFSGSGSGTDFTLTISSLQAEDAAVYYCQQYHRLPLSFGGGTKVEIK

Each variant is given by its three heavy chain CDRs, as the data file delimits them; those of the parent are GFTLNSYGIS, VIYSDGRRTFYGDSVK, GRAAGTFDS. Values are apparent Kd, the geometric mean of the replicates that gave a signal; lower means stronger binding. Where no diploid with the target was found in any replicate, the entry reads "not detected": below detection, most likely a poor binder, though not proof of it. Nonspecific signal, from three strains lacking the peptide, appeared in 1% of pairings of all heavy chain designs, centred on 120 nM (5% of these signals below 7.0 nM); values are not corrected for it.

| CDR-H1 | CDR-H2 | CDR-H3 | group | Kd (apparent) | seen in |
|---|---|---|---|---|---|
| GFHLNSYGIS | VIYSDGRRTFYIDSVK | GREAGTFDS | GP_Gen | 17 nM | 6 of 6 |
| GFDLQEYGIS | VIYADGKRRAYENKVK | GQSGGSVVI | En_Gibbs | not detected | 0 of 6 |
| GFDLDEYGIS | VIYADGMRTFYTDSVK | GEQAGTFDA | En_HC | 200 nM | 5 of 6 |
| GFELNSYGIS | VIYSDGRRTFYGDSVK | GKMAGTFDT | GP_Gen | 1.6 nM | 5 of 6 |
| GFCLNDYGIS | VIYSDGRRTFYADSVK | GRAAGTFDE | GP_HC | not detected | 0 of 6 |
| GFDLNEYGIS | VIYADGRRTQYIDSVK | GQVAGTFDS | En_HC | 280 pM | 6 of 6 |
| GFDLDEYGIS | VIYADGKRTFYADSVK | GEAAGTFDI | En_HC | 520 pM | 6 of 6 |
| GFSLDEYGIS | VIYADGVRKHYADSVK | GNIDGYYFA | En_Gibbs | not detected | 0 of 6 |
| GFDLNEYGIS | VIYADGMRTAYADDVK | GENGGTFDV | En_Gen | 700 pM | 6 of 6 |
| KFSLNSYGIS | VIYSDGRRTFYADSVK | GQAAGTFDS | GPLM_Gen | not detected | 0 of 6 |
| GFNLDEYGIS | VIYADGMRTAYKSKVK | GQVWWNLLM | En_Gibbs | 14 nM | 1 of 6 |
| GFTLNSYGIS | VIYADGRRTFYGDSVK | GEAAGTFDN | GPLM_Gen | 31 nM | 6 of 6 |
| GFTLNQYGIS | VIYSDGMRIFYSDSVK | GRAAGRFDS | Rand | not detected | 0 of 6 |
| GFTLNSYGIS | VIYSDGYRTAYADSVK | GRAKGTFDS | Ctrl | not detected | 0 of 6 |
| GFTLNMYGIS | VIYSDGRRTFYGDSVS | GRAAGTFDS | Ctrl | 46 nM | 1 of 6 |
| GFKLNNYGIS | VIYSDGRRTFYGDSVK | GRTAGTFDS | GP_Gen | 32 nM | 3 of 6 |
| GFTLNSYGIS | VIYADGKRTTYGDSVK | GRAAGTFVS | Ctrl | not detected | 0 of 6 |
| GFNLDEYGIS | VIYADGRRTFYQDSVK | GEVAGTFDQ | En_HC | 120 pM | 6 of 6 |
| GFDLNEYGIS | VIYADGMRTVYADSVK | GNVAGTFDV | En_Gen | 190 pM | 6 of 6 |
| GFELNDYGIS | VIYSDGRRTFYGDSVK | GRTAGTFDK | GP_Gen | 2.0 nM | 6 of 6 |
| GFTLNEYGIS | VIYSDGRRTFYGDSVK | GRAAGTFVQ | GPLM_HC | not detected | 0 of 6 |
| GADLNEYGIS | VIYADGRSVYYANSFK | GHVAGTFDS | En_Gibbs | 89 nM | 3 of 6 |
| GFDLNEYGIS | VIYADGRRTFYIDSVK | GSEAGTFNM | En_HC | 220 pM | 6 of 6 |
| GFTLNSYGIS | VIYADGRRTFYGDDVK | GRTAGTFDS | GPLM_HC | 1.7 nM | 6 of 6 |
| GFTLNSYGIS | VIYSDGRRTFYEDSVD | DRYTGTFHS | Ctrl | not detected | 0 of 6 |
| GFDLQEYGIS | VIFADGLRSAYSDKVK | GQINGYFVD | En_Gibbs | not detected | 0 of 6 |
| GFDLQEYGIS | VIYADGKRSMYSNDVK | GEVGLGELL | En_Gibbs | not detected | 0 of 6 |
| GFDLDEYGIS | VIYADGKRTAYADSVK | GNEAGTFDT | En_Gen | 240 pM | 6 of 6 |
| GKTLNSYGIS | VIYSDGERTFYGDSVK | GRNAGQFDS | Ctrl | 190 nM | 1 of 6 |
| GFDLNEYGIS | VIYADGMRTAYADDVK | GNVGGTFDV | En_Gen | 290 pM | 6 of 6 |
| GFTLNEYGII | VIYSDGRRCFYSDSVK | GRAGGTFDS | Rand | not detected | 0 of 6 |
| KFTLNEYGIS | VIYSDGRRTFYGDSVK | GRAAGTFDS | Ctrl | not detected | 0 of 6 |
| GFNLNSYGIS | VIYSDGRRTFYSDSVK | GRAAGTFDS | Ctrl+GPLM_HC | 3.1 nM | 12 of 12 |
| GFSLNSYGIS | VIYSDGRRTFYADHVK | GEAAGTFDS | GPLM_Gen | 2.7 nM | 6 of 6 |
| GFTLNSYGIS | VIYSDGRRTFYLDKVK | GEAYGTFFT | Ctrl | not detected | 0 of 6 |
| GFTLNDYGIS | VIYSDGRRTFYMDSVK | GRVAGTFWS | GP_HC | not detected | 0 of 6 |
| GFHLNSYGIS | VIYSDGRRTFYADSVK | GRAAGTFDS | Ctrl+GPLM_Gen | 95 nM | 9 of 12 |
| GFDLNEYGIS | VIYADGRRSFYADSVK | GQNAGTFDV | En_HC | 1.0 nM | 6 of 6 |
| GFDLNEYGIS | VIYADGSRTVYADSVK | GEAAGTFDQ | En_HC | 530 pM | 6 of 6 |
| GFDVNEYGIS | VIYADGRRTQYVQDVK | GKNNMVLYV | En_Gibbs | not detected | 0 of 6 |
| GFDINEYGIS | VIYADGIRTSYQNKVK | GDSGGIINV | En_Gibbs | 3.7 µM | 2 of 6 |
| GFPLNEYGIS | VIYADGRRTFYGDSVK | GRAAGTFDS | GP_HC | 230 pM | 6 of 6 |
| GFWLNEYGIS | VIYSDGRRTFYGDSVK | GKTAGTFDS | GP_Gen | not detected | 0 of 6 |
| GFELNSYGIS | VIYSDGRRTFYIDDVK | GRQAGTFDS | GP_Gibbs | 5.4 nM | 6 of 6 |
| GFTLNSYGIS | VMYSDGRRTFYGDSVK | GENAGTFSS | Ctrl | 4.8 nM | 1 of 6 |
| GFSLNSYGIS | VIYSDGRRTFYVDSVK | GNAAGTFDN | GPLM_Gibbs | 6.6 nM | 6 of 6 |
| GFELNEYGIS | VIYADGRRTFYGDSVK | GGAAGTFDS | GP_HC | 580 pM | 5 of 6 |
| GFELNEYGIS | VIYSDGRRTFYHDWVK | GRTAGTFDS | GP_Gibbs | 140 nM | 4 of 6 |
| GADIEEYGIS | VIYADGVRKYYVNSFK | GEVAGTFTN | En_Gibbs | not detected | 0 of 6 |
| GFDLTEYGIS | VIYADGRRQEYVDDVK | GQTAGHFLD | En_Gibbs | not detected | 0 of 6 |
| GFDLNEYGIS | VIYADGMRTAYVDDVK | GENAGTFDL | En_Gen | 2.0 nM | 6 of 6 |
| GFTLNSYGIS | VIYSDGRRTFYGDSVK | GRVAGTFDL | GPLM_Gen | 17 nM | 4 of 6 |
| GFDLMEYGIS | VIYADGQRQVYQDNVK | GGDLVLNIV | En_Gibbs | not detected | 0 of 6 |
| GFTLNSYGIS | VIYSDGYRTAYADSVK | LRAAGTFDS | Ctrl | not detected | 0 of 6 |
| GFSLNEYGIS | VIYSDGRRTFYGDSVK | GHAAGTFDT | GP_Gen | 18 nM | 1 of 6 |
| GFHLNEYGRS | VIYSDGRRTFYGDSVK | GKAKGCFDS | Ctrl | not detected | 0 of 6 |
| GFNLDEYGIS | VIYADGMRTAYADSVK | GNTAGTFDI | En_Gen | 1.1 nM | 6 of 6 |

Repeated from above, the 9 best binders with a signal in all replicates:

{"CDR-H1": "GFNLDEYGIS", "CDR-H2": "VIYADGRRTFYQDSVK", "CDR-H3": "GEVAGTFDQ", "group": "En_HC", "Kd (apparent)": "120 pM", "seen in": "6 of 6"}
{"CDR-H1": "GFDLNEYGIS", "CDR-H2": "VIYADGMRTVYADSVK", "CDR-H3": "GNVAGTFDV", "group": "En_Gen", "Kd (apparent)": "190 pM", "seen in": "6 of 6"}
{"CDR-H1": "GFDLNEYGIS", "CDR-H2": "VIYADGRRTFYIDSVK", "CDR-H3": "GSEAGTFNM", "group": "En_HC", "Kd (apparent)": "220 pM", "seen in": "6 of 6"}
{"CDR-H1": "GFPLNEYGIS", "CDR-H2": "VIYADGRRTFYGDSVK", "CDR-H3": "GRAAGTFDS", "group": "GP_HC", "Kd (apparent)": "230 pM", "seen in": "6 of 6"}
{"CDR-H1": "GFDLDEYGIS", "CDR-H2": "VIYADGKRTAYADSVK", "CDR-H3": "GNEAGTFDT", "group": "En_Gen", "Kd (apparent)": "240 pM", "seen in": "6 of 6"}
{"CDR-H1": "GFDLNEYGIS", "CDR-H2": "VIYADGRRTQYIDSVK", "CDR-H3": "GQVAGTFDS", "group": "En_HC", "Kd (apparent)": "280 pM", "seen in": "6 of 6"}
{"CDR-H1": "GFDLNEYGIS", "CDR-H2": "VIYADGMRTAYADDVK", "CDR-H3": "GNVGGTFDV", "group": "En_Gen", "Kd (apparent)": "290 pM", "seen in": "6 of 6"}
{"CDR-H1": "GFDLDEYGIS", "CDR-H2": "VIYADGKRTFYADSVK", "CDR-H3": "GEAAGTFDI", "group": "En_HC", "Kd (apparent)": "520 pM", "seen in": "6 of 6"}
{"CDR-H1": "GFDLNEYGIS", "CDR-H2": "VIYADGSRTVYADSVK", "CDR-H3": "GEAAGTFDQ", "group": "En_HC", "Kd (apparent)": "530 pM", "seen in": "6 of 6"}

The authors' rule: three or more of the six replicates give a measured affinity, fewer mean a poor binder. Values of this round are not directly comparable with the first-round values of the same sequences. A sequence that the file lists under several names has all its replicates pooled.

From the AlphaSeq antibody data of Li et al. 2023 (doi:10.1038/s41467-023-39022-2), copy in the FLAb collection.